The text below walks through data of ChEMBL document CHEMBL4229418, “Design, synthesis and pharmacology of aortic-selective acyl-CoA: Cholesterol O-acyltransferase (ACAT/SOAT) inhibitors” (Bioorg Med Chem, 2018).

This experiment is filed under the species Oryctolagus cuniculus. Put plainly: Selectivity ratio of IC50 for inhibition of SOAT2 in New Zealand white rabbit intestinal microsomes to IC50 for inhibition of SOAT1 in arterial homogenates isolated from 1% cholesterol fed New Zealand white rabbit.

For the molecule `CC(C)c1cccc(C(C)C)c1NC(=O)CCCCCSc1nc2ncccc2o1`, the Ratio IC50 is 5.6.
